# AlphaSeq binding of Ab-14 heavy chain variants to a spike HR2 peptide

From the AlphaSeq antibody data of Engelhart et al. 2022 (doi:10.1038/s41597-022-01779-4), copy in the FLAb collection.

Target: peptide PDVDLGDISGINAS, taken from heptad repeat 2 (HR2) of SARS-CoV-2 spike.

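The library (AAYL49) carries one to three amino acid substitutions per variant, with no insertions or deletions. In AlphaSeq, yeast of one mating type display the scFv and yeast of the other type display the target. Binding brings cells together so that they mate, and sequencing counts the barcode pairs among the diploids. Read counts were normalised to the haploid input and turned into Kd by a linear fit to BCL2-family pairs of known affinity, for each replicate. Mating was done three times.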

Ab-14 is the parent antibody, in scFv form: VH, then the linker GGGGSGGGGSGGGGS, then VL. The light chain is unchanged in all variants.
VH: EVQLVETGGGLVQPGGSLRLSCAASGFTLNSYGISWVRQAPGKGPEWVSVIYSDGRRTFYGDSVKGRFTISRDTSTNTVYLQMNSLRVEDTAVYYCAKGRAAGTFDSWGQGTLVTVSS
VL: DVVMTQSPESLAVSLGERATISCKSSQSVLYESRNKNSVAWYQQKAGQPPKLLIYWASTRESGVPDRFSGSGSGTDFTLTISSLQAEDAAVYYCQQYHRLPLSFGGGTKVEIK

Changes read parent residue, position, new residue, counted from the first residue of the VH shown. This list gathers variants with a substitution at S53 (VH, numbered from residue 1). Numbers give log10(Kd / nM), so 0 is 1 nM and 3 is 1 µM. Smaller is tighter. The mean shown is taken over the replicates in which the pair was detected. "nd" means that the variant was in the library but no mating with the target was seen in that replicate; the authors take this as a sign of poor binding, and no number exists.

changes,"log10 Kd, replicates","mean, log10 nM"
L29H S53C D62E,4.10 / nd / nd,4.10
S31D S53V T58R,1.85 / 1.71 / 1.73,1.76
S53Y T58Y V64H,nd / 3.06 / nd,3.06
S53I R57P A102S,nd / nd / nd,nd
S31I S53L D54Q,nd / nd / nd,nd
S53G F105E,nd / nd / nd,nd
I51F Y52K S53M,nd / nd / nd,nd
F27P G33A S53I,nd / nd / nd,nd
G26K S53V A102E,3.72 / nd / nd,3.72
V50Y S53L G61Q,nd / nd / nd,nd
G26D S53T D62C,3.18 / nd / nd,3.18
I51K S53T S107D,nd / 3.80 / nd,3.80
S31N S53C R56N,4.31 / 5.25 / nd,4.78
T28N S53R A102F,nd / nd / nd,nd
S35Q S53E F59P,nd / nd / 3.85,3.85
S53N Y60K K65R,nd / nd / nd,nd
N30V I51R S53P,nd / nd / nd,nd
V50G S53H,nd / nd / nd,nd
S53Y R100I,2.39 / 2.01 / 1.88,2.09
S53I S63K,nd / nd / nd,nd
S53W D54F A102M,nd / nd / nd,nd
S53P D54P K65E,4.06 / nd / nd,4.06
N30T S53T G55R,nd / nd / nd,nd
S53Q D62M F105G,nd / nd / nd,nd
S53L F105S S107W,nd / nd / nd,nd
S53C T58C A102L,nd / nd / nd,nd
S53A A101D D106R,3.40 / 2.67 / 2.80,2.96
S53Y V64Q F105R,nd / nd / nd,nd
Y32D S53A G99Y,4.27 / nd / 5.26,4.76
F27W S53C F59V,nd / nd / 4.00,4.00
I51P S53W R57P,nd / nd / nd,nd
G26K S53K F59H,6.33 / 4.39 / 4.19,4.97
S53Y D62G D106A,nd / 3.49 / nd,3.49
N30M S53P D62M,2.82 / nd / nd,2.82
G33T S53H G103S,nd / nd / nd,nd
S53G G61C G103V,nd / 2.45 / 3.41,2.93
S53N R100E G103F,nd / nd / nd,nd

Excerpt, the final 2 entries:

| changes | log10 Kd, replicates | mean, log10 nM |
|---|---|---|
| S53G G61C G103V | nd / 2.45 / 3.41 | 2.93 |
| S53N R100E G103F | nd / nd / nd | nd |

Parent in this assay: reference entry 0.65, copy in this library 4.11 (one replicate of three). As a blank, each scFv also met three strains without target: over library AAYL49, 15% of these pairings were detected, typically at 4.06 and seldom below 2.83.